{"source": "paper PMC4926252", "about": "(Scientific Reports, 2016)", "binders": {"B1": {"name": "ligand binding domain of the chemoreceptor CtpL (CtpL-LBD) (domain or fragment, P. aeruginosa, UniProt Q9HUW6 27-324, looked up)", "chain": "WSQRAMERPFQLLDQYLELSQRFDEQVARNIRQYLGSGDAVRQQAALQALESLAEALPELPPDLARTLAPSLAELREFSAGDLLAAGKLAGDPQGLLLQAERDLTGNLEQWSAYLDAAAGQPQAGAYRTPLLLASLHLTRLSLARAKLVESANPALAGDVERELANLREQAGRIEALPLLGVLDEQRSASDDFAAMMGLAGDAEAGAGNAEDRGVALRRELASLLQRYPDELRRTRDLIERRQQLSADTGARLDAVRQALATLEPQVRGERQRLQGQVRLIQGGMIALILLIALAIDS", "notes": "Cloned into pET28b(+); Held on a HisTrap column as bait in the pull-down; The discussion gives 286 amino acids for CtpL-LBD, whereas 27-324 is 298 residues; also called PA4844; source: E. coli BL21 (DE3), purified (HisTrap) from the soluble fraction"}}, "target": "T1, PstS (PA5369), periplasmic phosphate-binding protein, recombinant (P. aeruginosa, UniProt G3XDA8 25-323)", "T1 construct": "also called Pi-loaded PstS; source: E. coli BL21 (DE3), overexpressed, purified (HisTrap)", "T1 sequence": "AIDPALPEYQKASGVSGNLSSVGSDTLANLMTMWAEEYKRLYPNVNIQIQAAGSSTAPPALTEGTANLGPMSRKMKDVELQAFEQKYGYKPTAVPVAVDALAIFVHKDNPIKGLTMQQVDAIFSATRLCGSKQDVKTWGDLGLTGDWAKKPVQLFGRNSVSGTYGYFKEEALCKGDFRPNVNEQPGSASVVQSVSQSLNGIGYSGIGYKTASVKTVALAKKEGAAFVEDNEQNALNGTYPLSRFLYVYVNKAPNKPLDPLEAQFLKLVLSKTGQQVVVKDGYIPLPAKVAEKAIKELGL", "test": "ITC; 5 uM Pi-loaded PstS in the cell titrated with 80 uM CtpL-LBD; 25 °C; one binding site model; means of three experiments", "details": "both partners purified"}
{"binder": "B1", "values": [{"measurement": "Kd", "value": 3.7, "unit": "µM"}]}
